Key:
[1] = target: DPP4 (Homo sapiens, UniProt P27487); assay: Stability of peptides to proteolytic cleavage by DPP4; assay type: in vitro ADME; settings: 37° C., DPP-IV in 100 mM HEPES pH 7.4; 0, 1, 5, 24 hr; FIG. 2a
Method: The formulations described in Example 4 were placed in constant stability chamber. Peptides were also analyzed for stability to degradation in solutions of DPP4 and in plasma. Samples were removed periodically for analysis by capillary electrophoresis, mass spectrometry, Edman degradation, ELISA, and assays of peptide activity, which are sensitive methods to detect degradation of polypeptide. The area of various peaks was summed and the area for peak of the parent polypeptide is divided by the total peak area. The quotient is the % purity. Since there are impurities present in the fresh polypeptide, the purity change is normalized by dividing the purity at different time point by the initial purity. For stability to DPP4 and plasma, peptides at 20 pmol/μl were incubated at 37° C. in the presence of 300 μM DPP-IV in 100 mM HEPES, pH 7.4 (FIG. 2a). At various timepoints, the reaction (2 μl aliquot) was terminated by addition of 1 μM DPP-IV inhibitor and freezing. For MALDI mass spectrometric analysis, T=0 hr, 1 hr, 5 hr, and 24 hr timepoints were evaluated. The results are plotted as percent intact peptide or peptide derivative as compared to degradation products.

Sequences of proteins named here, by UniProt entry; tags and fusion partners are left off.
UniProt P27487, whole entry, species assumed: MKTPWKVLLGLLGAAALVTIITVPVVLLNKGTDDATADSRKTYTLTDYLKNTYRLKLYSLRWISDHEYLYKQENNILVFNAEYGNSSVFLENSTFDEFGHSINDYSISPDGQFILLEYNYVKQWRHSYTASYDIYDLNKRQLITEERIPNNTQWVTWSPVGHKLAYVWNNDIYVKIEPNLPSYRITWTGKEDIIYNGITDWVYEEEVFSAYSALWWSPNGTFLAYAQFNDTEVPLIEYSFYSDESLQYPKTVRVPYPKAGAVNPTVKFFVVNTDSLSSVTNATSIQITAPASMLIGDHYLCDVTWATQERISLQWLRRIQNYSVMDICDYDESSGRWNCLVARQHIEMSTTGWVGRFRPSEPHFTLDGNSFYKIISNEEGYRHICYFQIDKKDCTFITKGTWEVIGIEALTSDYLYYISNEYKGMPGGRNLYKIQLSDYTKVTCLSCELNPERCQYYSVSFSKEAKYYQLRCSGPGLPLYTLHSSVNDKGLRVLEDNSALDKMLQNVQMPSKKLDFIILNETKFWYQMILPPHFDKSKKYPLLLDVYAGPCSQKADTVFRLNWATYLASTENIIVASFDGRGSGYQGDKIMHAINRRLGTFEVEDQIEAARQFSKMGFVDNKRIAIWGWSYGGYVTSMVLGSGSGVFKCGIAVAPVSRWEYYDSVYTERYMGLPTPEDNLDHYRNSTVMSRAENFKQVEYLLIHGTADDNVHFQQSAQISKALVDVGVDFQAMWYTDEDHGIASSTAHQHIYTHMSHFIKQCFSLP

[2] = cited from earlier work

For PACAP-27, the “stability to proteolytic cleavage by DPP4” value [1] is listed as “cleaved at longer time points” and the half-life in vivo [2] is listed as under 10 min.
